Source: US7618664B2, “Method for preparing calcium gluconate” (Cooperatieve Verkoop-en Productievereniging Van …, priority 2001, dated 2009)

How the values were obtained:
[1] = Solubility of calcium gluconate prepared enzymatically in the presence of calcium lactate
[2] = pH 5; cited from earlier work

In the case of calcium gluconate, the “total calcium content of clear solutions without crystals” value [1] is given as > 46 g total calcium/kg solution and the “solubility under the conditions required for optimal enzymatic conversion” value [2] is given as 40 mg/mL.
